PMC10092094 (Chemmedchem, 2022)

Sequences of proteins named here, by UniProt entry; tags and fusion partners are left off.
UniProt O15527, whole entry: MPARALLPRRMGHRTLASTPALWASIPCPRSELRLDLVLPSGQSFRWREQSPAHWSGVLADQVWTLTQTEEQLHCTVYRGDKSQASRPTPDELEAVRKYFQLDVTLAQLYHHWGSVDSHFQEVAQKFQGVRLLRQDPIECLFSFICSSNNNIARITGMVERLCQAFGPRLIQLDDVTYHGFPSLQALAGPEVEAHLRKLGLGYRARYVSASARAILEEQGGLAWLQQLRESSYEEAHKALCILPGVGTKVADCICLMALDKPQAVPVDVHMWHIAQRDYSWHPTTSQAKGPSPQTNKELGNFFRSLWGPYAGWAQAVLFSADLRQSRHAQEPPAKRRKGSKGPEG

Experiments:
OGG1 [1] = target: T1, OGG1 (Homo sapiens, UniProt O15527); experiment: Differential scanning fluorimetry; assay type: binding
OGG1 [2] = target: T1, OGG1; experiment: biochemical; settings: IC50 (CI95), biochemical inhibition, confidence interval 95 in parentheses

| Compound | DSF stabilization (ΔT) (OGG1 [1]) [K] | IC50 (OGG1 [2]) [µM] |
| --- | --- | --- |
| O=C(Nc1cccc(F)c1)N1CCC(n2c(=O)[nH]c3ccccc32)CC1 [Compound 2, N‐(3‐fluorophenyl)‐4‐(2‐oxo‐2,3‐dihydro‐1H‐1,3‐benzodiazol‐1‐yl)piperidine‐1‐carboxamide] | 1.6 | > 100 |
| O=C(Nc1cccc(Cl)c1)N1CCC(n2c(=O)[nH]c3ccccc32)CC1 [Compound 3, N‐(3‐chlorophenyl)‐4‐(2‐oxo‐2,3‐dihydro‐1H‐1,3‐benzodiazol‐1‐yl)piperidine‐1‐carboxamide] | 1.2 | > 100 |
| O=C(Nc1ccc(F)cc1)N1CCC(n2c(=O)[nH]c3ccccc32)CC1 [Compound 5, N‐(4‐fluorophenyl)‐4‐(2‐oxo‐2,3‐dihydro‐1H‐1,3‐benzodiazol‐1‐yl)piperidine‐1‐carboxamide] | 1.3 | > 100 |
| O=C(Nc1ccc([N+](=O)[O-])cc1)N1CCC(n2c(=O)[nH]c3ccccc32)CC1 [Compound 10, N‐(4‐nitrophenyl)‐4‐(2‐oxo‐2,3‐dihydro‐1H‐1,3‐benzodiazol‐1‐yl)piperidine‐1‐carboxamide] | – | > 100 |
| O=C(Nc1cccc(Cl)c1)N1CCC(n2c(=O)[nH]c3cc(Cl)ccc32)CC1 [Compound 13, 4‐(5‐chloro‐2‐oxo‐2,3‐dihydro‐1H‐1,3‐benzodiazol‐1‐yl)‐N‐(3‐chlorophenyl)piperidine‐1‐carboxamide] | 1.3 | > 100 |
| Cc1ccc(NC(=O)N2CCC(n3c(=O)[nH]c4cc(Cl)ccc43)CC2)cc1 [Compound 14, 4‐(5‐chloro‐2‐oxo‐2,3‐dihydro‐1H‐1,3‐benzodiazol‐1‐yl)‐N‐(4‐methylphenyl)piperidine‐1‐carboxamide] | 1.5 | > 100 |
| O=C(Nc1ccc(F)cc1)N1CCC(n2c(=O)[nH]c3cc(Cl)ccc32)CC1 [Compound 15, 4‐(5‐chloro‐2‐oxo‐2,3‐dihydro‐1H‐1,3‐benzodiazol‐1‐yl)‐N‐(4‐fluorophenyl)piperidine‐1‐carboxamide] | 1.7 | – |
| O=C(Nc1ccc(I)cc1)N1CCC(n2c(=O)[nH]c3cc(Cl)ccc32)CC1 [Compound 18, 4‐(5‐chloro‐2‐oxo‐2,3‐dihydro‐1H‐1,3‐benzodiazol‐1‐yl)‐N‐(4‐iodophenyl)piperidine‐1‐carboxamide] | – | 1.4 |
| Cc1ccc2[nH]c(=O)n(C3CCN(C(=O)Nc4ccc(I)cc4)CC3)c2c1 [Compound 22, 4‐(6‐methyl‐2‐oxo‐2,3‐dihydro‐1H‐1,3‐benzodiazol‐1‐yl)‐N‐(4‐iodophenyl)piperidine‐1‐carboxamide] | 3.4 | – |
| O=C(Nc1ccc([N+](=O)[O-])cc1)N1CCC(n2c(=O)[nH]c3c(Br)cccc32)CC1 [Compound 48, 4‐(4‐bromo‐2‐oxo‐2,3‐dihydro‐1H‐1,3‐benzodiazol‐1‐yl)‐N‐(4‐nitrophenyl)piperidine‐1‐carboxamide] | -0.17 | – |
| CCOC(=O)c1ccc(NC(=O)N2CCC(n3c(=O)[nH]c4c(Br)cccc43)CC2)cc1 [Compound 50, Ethyl‐4‐{[4‐(4‐bromo‐2‐oxo‐2,3‐dihydro‐1H‐1,3‐benzodiazol‐1‐yl)‐piperidine‐1‐carbonyl]‐amino}‐benzoate] | -0.11 | – |
| CC(=O)Nc1ccc(NC(=O)N2CCC(n3c(=O)[nH]c4c(Br)cccc43)CC2)cc1 [Compound 51, 4‐(4‐bromo‐2‐oxo‐2,3‐dihydro‐1H‐1,3‐benzodiazol‐1‐yl)‐N‐(4‐acetamidophenyl)piperidine‐1‐carboxamide] | -0.37 | – |
